# Experimental data taken from ChEMBL document CHEMBL6096662, “Discovery and structure-activity relationship study of nicotinamide derivatives as DNA demethylase ALKBH2 inhibitors” (Eur J Med Chem, 2025).
# Activity calls are given as the source filed them. The calls are words filed in the database; no cut-off is given here.
# Experiments:
# [1] = system: U-87 MG; settings: Homo sapiens; U-87MG ATCC; dose 2.5-5 µM, time <= 24.0 hrs
# [2] = system: U-87 MG; settings: Homo sapiens; U-87MG ATCC; dose 5-10 µM, time 12.0 day
# [3] = system: U-87 MG; settings: Homo sapiens; U-87MG ATCC; dose 2.5-5 µM, time <= 24.0 hrs; remark: listed apart in the source
# [4] = biological target: T1, DNA oxidative demethylase ALKBH2 (Homo sapiens) (UniProt Q6NS38); settings: dose 50.0 µM
# T1 sequence (whole entry): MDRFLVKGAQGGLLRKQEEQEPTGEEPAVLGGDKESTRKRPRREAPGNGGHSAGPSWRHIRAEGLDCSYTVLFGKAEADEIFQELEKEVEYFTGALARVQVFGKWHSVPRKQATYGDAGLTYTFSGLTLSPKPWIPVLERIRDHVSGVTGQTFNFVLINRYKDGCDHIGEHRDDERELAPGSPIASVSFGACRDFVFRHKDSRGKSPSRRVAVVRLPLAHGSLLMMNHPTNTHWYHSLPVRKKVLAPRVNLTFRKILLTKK
# [5] = biological target: T1, DNA oxidative demethylase ALKBH2 (Homo sapiens); settings: dose 1.56 µM
# [6] = biological target: T1, DNA oxidative demethylase ALKBH2 (Homo sapiens); settings: dose 25.0 µM
# [7] = biological target: T1, DNA oxidative demethylase ALKBH2 (Homo sapiens); settings: dose 200.0 µM
# [8] = biological target: T1, DNA oxidative demethylase ALKBH2 (Homo sapiens); settings: dose 0.78 µM
# [9] = biological target: T1, DNA oxidative demethylase ALKBH2 (Homo sapiens); settings: dose 12.5 µM
# [10] = biological target: T1, DNA oxidative demethylase ALKBH2 (Homo sapiens); settings: dose 100.0 µM
# [11] = biological target: T1, DNA oxidative demethylase ALKBH2 (Homo sapiens); settings: dose 6.25 µM
# [12] = biological target: T1, DNA oxidative demethylase ALKBH2 (Homo sapiens); settings: dose 3.16 µM
Structure (SMILES),inhibition [1],inhibition [2],inhibition [3],ΔTm [4] [°C],ΔTm [5] [°C],ΔTm [6] [°C],ΔTm [7] [°C],ΔTm [8] [°C],ΔTm [9] [°C],ΔTm [10] [°C],ΔTm [11] [°C],ΔTm [12] [°C]
CCOC(=O)c1cnn(-c2ccc(C(=O)NC(c3ccccc3)C(C)(C)C)cn2)c1 (configuration not stated),Time-dependent-effect,Active,Dose-dependent-effect,–,–,–,–,–,–,–,–,–
CC(C)(C)C(NC(=O)c1ccc(-n2cc(C(=O)O)cn2)nc1)c1ccccc1 (configuration not stated),–,–,–,10.7,3.88,9.62,12.8,2.4,8.24,11.7,7.01,5.68
